Data from patent US10123993B2, “Cyclic ureas as inhibitors of rock” (BRISTOL-MYERS SQUIBB COMPANY, priority 2015, dated 2018).

Sequences of proteins named here, by UniProt entry; tags and fusion partners are left off.
UniProt O75116, whole entry: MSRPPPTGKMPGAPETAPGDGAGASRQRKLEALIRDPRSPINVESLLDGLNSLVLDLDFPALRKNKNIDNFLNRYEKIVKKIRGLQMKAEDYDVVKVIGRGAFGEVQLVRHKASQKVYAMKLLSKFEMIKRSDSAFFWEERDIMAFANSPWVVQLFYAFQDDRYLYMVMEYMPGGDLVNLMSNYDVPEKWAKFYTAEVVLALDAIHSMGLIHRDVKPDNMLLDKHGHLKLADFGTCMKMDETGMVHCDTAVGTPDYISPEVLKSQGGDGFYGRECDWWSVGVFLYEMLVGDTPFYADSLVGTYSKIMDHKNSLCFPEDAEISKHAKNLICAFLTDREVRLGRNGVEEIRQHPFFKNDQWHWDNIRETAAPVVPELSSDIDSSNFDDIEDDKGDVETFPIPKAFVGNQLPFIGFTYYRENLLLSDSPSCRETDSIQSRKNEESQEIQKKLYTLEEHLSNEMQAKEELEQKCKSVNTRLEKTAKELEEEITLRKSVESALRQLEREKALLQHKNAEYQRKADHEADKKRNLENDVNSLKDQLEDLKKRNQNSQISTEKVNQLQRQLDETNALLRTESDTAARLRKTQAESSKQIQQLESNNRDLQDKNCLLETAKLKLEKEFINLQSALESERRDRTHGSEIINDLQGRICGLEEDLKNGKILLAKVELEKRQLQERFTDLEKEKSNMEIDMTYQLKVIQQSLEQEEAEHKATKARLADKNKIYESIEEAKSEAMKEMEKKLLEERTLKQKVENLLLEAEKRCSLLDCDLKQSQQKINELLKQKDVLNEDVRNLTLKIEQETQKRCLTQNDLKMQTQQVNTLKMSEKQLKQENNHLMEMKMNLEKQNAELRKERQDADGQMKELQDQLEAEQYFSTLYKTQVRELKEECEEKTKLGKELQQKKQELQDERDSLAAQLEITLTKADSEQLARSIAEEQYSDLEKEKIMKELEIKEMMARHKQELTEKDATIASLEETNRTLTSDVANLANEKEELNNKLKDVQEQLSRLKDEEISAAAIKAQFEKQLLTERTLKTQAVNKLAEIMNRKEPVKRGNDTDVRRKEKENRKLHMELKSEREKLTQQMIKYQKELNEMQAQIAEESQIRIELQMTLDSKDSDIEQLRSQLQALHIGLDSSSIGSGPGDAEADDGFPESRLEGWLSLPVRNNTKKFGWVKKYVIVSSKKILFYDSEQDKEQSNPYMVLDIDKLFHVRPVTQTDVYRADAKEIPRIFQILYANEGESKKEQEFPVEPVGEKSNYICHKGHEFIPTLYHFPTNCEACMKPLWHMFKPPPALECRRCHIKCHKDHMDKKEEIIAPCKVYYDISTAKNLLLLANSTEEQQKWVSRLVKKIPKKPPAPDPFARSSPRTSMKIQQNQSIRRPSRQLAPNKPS

Target: ROCK2 (Homo sapiens, UniProt O75116)
Experiment: ROCK2 kinase inhibition assay (Caliper LABCHIP, FITC peptide substrate)
Details: read-out: ROCK2 IC50; 5 μM ATP, 1.5 μM peptide substrate; value ranges

IC50: 20.1 to 200 nM
SMILES: COc1cccc(CN2CCN(c3ccc(-c4ccnc5[nH]ccc45)c(OC)n3)C2=O)c1
